# From ChEMBL document CHEMBL5113375, “Development of Mcl-1 inhibitors for cancer therapy” (Eur J Med Chem, 2021)
# By UniProt entry, the sequences of proteins in these tests, tags left out.
# UniProt Q07817, whole entry: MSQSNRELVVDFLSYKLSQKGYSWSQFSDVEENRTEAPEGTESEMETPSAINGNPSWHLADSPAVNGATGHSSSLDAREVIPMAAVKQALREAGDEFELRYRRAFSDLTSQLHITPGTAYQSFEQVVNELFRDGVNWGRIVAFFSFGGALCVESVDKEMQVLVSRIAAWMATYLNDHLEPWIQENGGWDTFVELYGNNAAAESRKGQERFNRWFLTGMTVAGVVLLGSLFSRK
# UniProt Q07820, whole entry: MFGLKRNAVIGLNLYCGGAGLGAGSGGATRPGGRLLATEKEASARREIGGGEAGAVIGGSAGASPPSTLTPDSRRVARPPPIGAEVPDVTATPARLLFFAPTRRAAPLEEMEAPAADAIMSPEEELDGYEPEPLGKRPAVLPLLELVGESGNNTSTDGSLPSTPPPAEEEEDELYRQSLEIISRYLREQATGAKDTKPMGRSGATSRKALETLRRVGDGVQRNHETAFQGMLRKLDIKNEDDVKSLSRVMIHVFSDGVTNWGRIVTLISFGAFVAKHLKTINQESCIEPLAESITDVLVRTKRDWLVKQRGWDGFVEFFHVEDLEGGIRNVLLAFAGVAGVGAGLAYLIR
# pIC50: −log10 of the molar value.
# Experiments:
# Bcl-xL/BAK = Bcl-xL/BAK (Homo sapiens, UniProt Q07817); test: Inhibition of Bcl-xL/Bak (unknown origin); type: protein assay
# MCL1-BAK1 complex = MCL1-BAK1 complex (Homo sapiens, UniProt Q07820); test: Inhibition of Mcl-1/Bak (unknown origin); type: protein-complex assay
smiles,measurement,setting,value
Cc1cc2c(C(=O)NCC(C)c3ccccc3)c(O)c(O)cc2c(O)c1-c1c(C)cc2c(C(=O)NC[C@@H](C)c3ccccc3)c(O)c(O)cc2c1O (some centres not stated),pIC50,Bcl-xL/BAK,6.12
same,pIC50,MCL1-BAK1 complex,6.55
